Measured values from paper PMC6475490 (Psychopharmacology, 2018).

The chains behind the UniProt entries cited, without tags or fusion partners.
UniProt P31652, whole entry: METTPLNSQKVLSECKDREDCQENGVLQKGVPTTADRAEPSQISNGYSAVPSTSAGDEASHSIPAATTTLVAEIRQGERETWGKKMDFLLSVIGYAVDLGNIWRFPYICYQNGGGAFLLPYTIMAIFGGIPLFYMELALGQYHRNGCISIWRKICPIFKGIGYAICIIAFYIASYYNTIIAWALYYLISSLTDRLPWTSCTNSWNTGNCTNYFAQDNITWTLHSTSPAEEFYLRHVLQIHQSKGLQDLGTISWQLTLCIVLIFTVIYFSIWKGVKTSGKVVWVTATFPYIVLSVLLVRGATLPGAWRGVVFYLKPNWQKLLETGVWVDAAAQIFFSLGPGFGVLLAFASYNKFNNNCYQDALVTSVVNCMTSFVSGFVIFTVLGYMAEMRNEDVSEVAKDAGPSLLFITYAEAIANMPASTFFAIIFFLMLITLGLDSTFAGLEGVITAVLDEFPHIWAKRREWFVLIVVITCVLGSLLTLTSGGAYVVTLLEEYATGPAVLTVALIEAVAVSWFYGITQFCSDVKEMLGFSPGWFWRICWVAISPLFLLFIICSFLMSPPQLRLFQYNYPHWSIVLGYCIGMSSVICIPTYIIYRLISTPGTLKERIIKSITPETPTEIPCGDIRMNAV
UniProt P23977, whole entry: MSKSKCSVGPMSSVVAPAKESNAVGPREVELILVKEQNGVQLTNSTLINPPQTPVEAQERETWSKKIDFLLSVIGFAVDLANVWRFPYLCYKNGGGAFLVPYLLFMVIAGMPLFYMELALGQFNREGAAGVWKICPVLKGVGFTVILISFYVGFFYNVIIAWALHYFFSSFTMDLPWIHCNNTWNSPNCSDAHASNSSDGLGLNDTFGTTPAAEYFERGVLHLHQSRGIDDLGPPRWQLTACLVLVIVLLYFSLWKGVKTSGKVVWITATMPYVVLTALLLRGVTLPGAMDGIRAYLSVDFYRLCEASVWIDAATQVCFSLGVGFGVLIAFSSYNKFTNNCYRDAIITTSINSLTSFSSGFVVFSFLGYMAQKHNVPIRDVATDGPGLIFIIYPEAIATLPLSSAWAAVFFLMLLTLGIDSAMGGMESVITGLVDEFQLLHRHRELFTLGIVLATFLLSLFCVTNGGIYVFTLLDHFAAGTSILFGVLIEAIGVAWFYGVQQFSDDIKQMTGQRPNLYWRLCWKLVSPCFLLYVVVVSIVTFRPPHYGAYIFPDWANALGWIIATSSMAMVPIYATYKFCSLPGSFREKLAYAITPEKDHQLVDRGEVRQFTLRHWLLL

Experiments:
SERT = SERT (Rattus norvegicus, UniProt P31652); assay: SERT-mediated [3H]5-HT release assay in rat brain synaptosomes; type: biochemical; conditions: relative to methcathinone 1
DAT = DAT (Rattus norvegicus, UniProt P23977); assay: DAT-mediated [3H]DA release assay in rat brain synaptosomes; type: biochemical; conditions: relative to methcathinone 1

CNC(C)C(=O)c1ccc(OC)cc1 (centres unmarked) [Compound 25]
fold more potent at 5-HT release (SERT) compared to 1 (SERT): 22 fold
fold less potent at DA release (DAT) compared to 1 (DAT): 18 fold
